This note sets out measurements from patent publication US7049327B2, “Substituted dimethyl-[1-(1-phenyl-cyclohexyl)-piperidin-3-ylmethyl]-amines and the use of the same as analgesics” (dated 2006).

Test [1] has as its system phenylquinone-induced writhing reactions in mice. Put plainly: Phenylquinone-induced writhing test in mice. The settings on record: male mice, 10 min before phenylquinone i.p., writhing counted 5 to 20 min after phenylquinone. (In general: An intraperitoneal irritant provokes the stretching counted in writhing tests.)
The subject of test [2] is formalin-induced nociceptive reaction (licking and biting of the paw) in mice. Put plainly: Formalin test in mice, second (late) phase. To be noted: male NMRI mice, 5 min before formalin (20 μl, 1% s.c.), 21st to 24th minute.

In the case of `CN(C)CC1CN(C2(c3ccccc3)CCCCC2)CCC1(C)O.Cl.Cl` (centres unmarked), in test [1], the “% inhibition of the writhing reactions 10 mg/kg i.v.” value was determined as 33%. With `CN(C)CC1CN(C2(c3ccccc3)CCCCC2)CCC1(O)c1cccc(Cl)c1.Cl.Cl` (centres unmarked), the “% inhibition of the writhing reactions 10 mg/kg i.v.” value in test [1] was 40%. In the case of `CN(C)CC1CN(C2(c3ccccc3)CCCCC2)CCC1(O)c1cccc(O)c1.Cl.Cl` (centres unmarked), in test [2], the “% inhibition relative to control 10 mg/kg i.v.” value is 59%. Further, the “% inhibition of the writhing reactions 10 mg/kg i.v.” value in test [1] amounted to 73%. Regarding `CCCCCCCCC1(O)CCN(C2(c3ccccc3)CCCCC2)CC1CN(C)C.Cl.Cl` (centres unmarked), the “% inhibition of the writhing reactions 10 mg/kg i.v.” value in test [1] is recorded as 31%. In the case of `COc1cccc(C2(O)CCN(C3(c4ccccc4)CCCCC3)CC2CN(C)C)c1.Cl.Cl` (centres unmarked), in test [2], the “% inhibition relative to control 10 mg/kg i.v.” value was found to be 55%. The “% inhibition of the writhing reactions 10 mg/kg i.v.” value in test [1] turned out to be 54%. As for `CN(C)CC1CN(C2(c3ccccc3)CCCCC2)CCC1(O)Cc1ccccc1.Cl.Cl` (centres unmarked), in test [1], the “% inhibition of the writhing reactions 10 mg/kg i.v.” value came to 35%.
